Test results taken from ChEMBL document CHEMBL5321206, “New amidine-benzenesulfonamides as iNOS inhibitors for the therapy of the triple negative breast cancer” (Eur J Med Chem, 2023).

Test: Selectivity ratio of IC50 for inhibition of full length N-terminal his-tagged bovine eNOS (2 to 1205 residues) expressed in Escherichia coli to IC50 for inhibition of N-terminal his6-tagged recombinant human iNOS expressed in Escherichia coli

Row | Ratio IC50 | SMILES
1 | > 770 | Br.Cc1ccc(S(=O)(=O)NCc2cccc(CNC(=N)c3ccccc3)c2)cc1
2 | > 60 | N=C(NCc1ccc(NS(=O)(=O)c2ccc([N+](=O)[O-])cc2)cc1)c1ccccc1
